# AlphaSeq binding of Ab-95 light chain variants to a spike HR2 peptide

The measurements come from Engelhart et al. 2022 (doi:10.1038/s41597-022-01779-4) through the FLAb antibody collection.

Antigen: PDVDLGDISGINAS, a 14-residue peptide of the SARS-CoV-2 spike HR2 region.

Each scFv is VH, a 15-residue (Gly4Ser)3 linker, VL, as in the parent Ab-95, and differs from it in the CDRs of the light chain only.
VH: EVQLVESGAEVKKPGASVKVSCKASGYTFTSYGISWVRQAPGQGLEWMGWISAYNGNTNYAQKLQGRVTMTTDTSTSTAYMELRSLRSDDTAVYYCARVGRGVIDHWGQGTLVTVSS
VL: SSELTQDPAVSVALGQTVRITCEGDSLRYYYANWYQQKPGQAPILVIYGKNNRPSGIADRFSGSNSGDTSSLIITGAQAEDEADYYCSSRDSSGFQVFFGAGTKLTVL

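The parent was found by panning a naive human phage display library on the peptide. In library AAYL52, one, two or three CDR residues were substituted; doubles and triples were drawn at random. The scFvs were displayed on barcoded MATa yeast, the peptide on MATalpha yeast. After mating in shaken culture at 30 °C for 16 h, diploids were selected and their barcode pairs sequenced. The ratio of observed to expected reads was calibrated, replicate by replicate, on BCL2-family standards whose Kd was known from biolayer interferometry. There are three technical replicates.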

Substitutions are numbered in sequence along the VL above, starting at 1 (not Kabat). The read-out is the apparent dissociation constant on a log10 scale (nM): the lower, the stronger. A mean of the replicates is given; it leaves out those without a signal. "n.d." means that the variant was in the library but no mating with the target was seen in that replicate; the authors take this as a sign of poor binding, and no number exists. For reference, the parent read 2.31 as the reference entry and 2.25 as a member of this library. Nonspecific signal, from three strains lacking the peptide, appeared in 28% of pairings of library AAYL52, centred on 3.91 (5% of these signals below 2.90); values are not corrected for it. Also given: how often the same scFv was detected with the empty control strains, with their mean in brackets.

| changes | replicates, log10 nM | mean log10 Kd (nM) | signal with controls |
|---|---|---|---|
| Y30G/R90C/S93C | 0.88 0.99 0.54 | 0.80 | 3/9 (3.71) |
| S26I/S55C/V97A | n.d. n.d. n.d. | n.d. | 0/9 |
| D25E/Y31Q/S92V | 1.16 1.21 0.57 | 0.98 | 5/9 (4.24) |
| G49W/F95G/V97K | n.d. n.d. n.d. | n.d. | 2/9 (3.56) |
| N51T/P54H/V97I | n.d. n.d. n.d. | n.d. | 1/9 (3.51) |
| G49K/V97I | n.d. 5.49 3.44 | 4.46 | 2/9 (3.59) |
| S88Q/D91C/F98S | 3.46 n.d. n.d. | 3.46 | 3/9 (4.18) |
| R28N/K50F/R53P | 4.76 4.45 n.d. | 4.60 | 2/9 (4.06) |
| D25K/G49V/V97Y | 3.67 n.d. 4.22 | 3.94 | 2/9 (3.77) |
| E23N/S55M/G94I | n.d. n.d. n.d. | n.d. | 2/9 (4.26) |
| D91A/G94V/V97F | 2.11 2.35 2.04 | 2.17 | 3/9 (3.54) |
| D91N/S92T/V97T | n.d. 5.32 n.d. | 5.32 | 1/9 (4.71) |
| E23D/D25Q/G49A | 5.48 4.64 2.60 | 4.24 | 5/9 (4.26) |
| G49K/S88M/S92H | 4.18 4.42 n.d. | 4.30 | 2/9 (3.91) |
| R28L/G94S/V97T | 3.19 n.d. n.d. | 3.19 | 0/9 |
| Y31M/N52E/R53H | 1.95 1.88 1.89 | 1.91 | 2/9 (4.03) |
| G24N/S92G/G94E | 4.19 n.d. 4.48 | 4.34 | 5/9 (4.03) |
| Y31F/P54A/Q96L | 2.68 2.57 2.47 | 2.57 | 6/9 (4.40) |
| G49I/R53C/S88G | n.d. n.d. n.d. | n.d. | 0/9 |
| D25L/K50G/P54Y | 3.37 3.10 3.30 | 3.26 | 5/9 (4.37) |
| S89G/Q96K/V97K | 2.46 2.64 2.82 | 2.64 | 0/9 |
| D25E/S26L/V97Y | 4.44 4.73 3.99 | 4.39 | 4/9 (3.79) |
| R53E/S92Q/F95Q | 3.39 3.05 2.59 | 3.01 | 2/9 (3.61) |
| E23T/K50L/S55Y | 2.55 2.68 2.68 | 2.64 | 1/9 (3.23) |
| G49E/R53I/R90S | 3.85 n.d. n.d. | 3.85 | 0/9 |
| G49T/S89D/R90M | n.d. 3.52 3.69 | 3.61 | 6/9 (4.18) |
| E23S/N33L/P54T | 4.06 n.d. n.d. | 4.06 | 4/9 (3.64) |
| Y30H/G49L/R90I | 2.78 2.77 1.52 | 2.36 | 4/9 (4.01) |
| K50V/F95Y | 1.81 2.47 1.71 | 1.99 | 0/9 |
| G24C/K50N/V97H | n.d. 5.07 4.06 | 4.57 | 4/9 (4.33) |
| R28N/S88P/G94D | 5.20 n.d. n.d. | 5.20 | 2/9 (3.94) |
| N51W/D91P/S92W | 4.80 4.89 n.d. | 4.85 | 3/9 (3.87) |

Top 4 of the variants detected in all replicates, tightest first:

| changes | replicates, log10 nM | mean log10 Kd (nM) | signal with controls |
|---|---|---|---|
| Y30G/R90C/S93C | 0.88 0.99 0.54 | 0.80 | 3/9 (3.71) |
| D25E/Y31Q/S92V | 1.16 1.21 0.57 | 0.98 | 5/9 (4.24) |
| Y31M/N52E/R53H | 1.95 1.88 1.89 | 1.91 | 2/9 (4.03) |
| K50V/F95Y | 1.81 2.47 1.71 | 1.99 | 0/9 |